Earlier results as cited in patent US20040220266A1, “Composition and method for enhancing the bioavailability of calcium and magnesium in dietary supplements and food additives” (priority 2002, published 2004).

Conditions: 20° C.; cited from earlier work

## Calcium glycerophosphate
  soluble in parts of water: 50 parts of water
